# Binding of CDR-mutated scFvs to a peptide of the spike HR2 region

The target is the same throughout: PDVDLGDISGINAS, from the HR2 region of SARS-CoV-2 spike.

Each scFv is VH, a 15-residue (Gly4Ser)3 linker, VL, as in the parent Ab-95, and differs from it in the CDRs of the light chain only.
VH: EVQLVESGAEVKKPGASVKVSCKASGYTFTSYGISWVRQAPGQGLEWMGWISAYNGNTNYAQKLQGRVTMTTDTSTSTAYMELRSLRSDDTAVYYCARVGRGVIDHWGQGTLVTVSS
VL: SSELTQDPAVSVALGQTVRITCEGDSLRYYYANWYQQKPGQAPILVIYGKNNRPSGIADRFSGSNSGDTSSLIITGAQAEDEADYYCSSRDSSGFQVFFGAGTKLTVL

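The parent was found by panning a naive human phage display library on the peptide. Library AAYL52 holds single substitutions and randomly drawn double and triple substitutions in the CDRs. AlphaSeq pools MATa yeast showing the antibodies with MATalpha yeast showing the peptide. The frequency of each diploid, read from paired DNA barcodes, reflects how well the two displayed proteins bind. Each replicate has its own calibration line, from reference interactions of the BCL2 family. There are three technical replicates.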

Variants are written as CDR1, CDR2 and CDR3 of the light chain (limits as in the source). Parent: EGDSLRYYYAN, GKNNRPS, SSRDSSGFQVF.
Every variant below is changed at E23 of the VL (sequential numbering).
Values are apparent Kd, the geometric mean of the replicates that gave a signal; lower means stronger binding.
An entry "nd" has no value in the source: the pair was not observed among the diploids in any replicate. This suggests poor binding but is not conclusive.
Entries are sorted by rising average, undetected variants last.
In this assay the parent's reference entry averaged 200 nM; its copy inside this library read 180 nM.
Empty control strains, which show no peptide, gave a signal in 28% of pairings with library AAYL52; the median was 8.2 µM and 95% of these signals were weaker than 800 nM. No background was subtracted. For each scFv, signals with the empty controls are counted beside the result.

Variant QGDSLRYGYAN / GKNNRPS / RSRDSSGFQVF gave 1.7 nM (3 of 3 replicates; controls 5 of 9).
Variant KGDSLRYYYAN / GKNNRPS / SSRDSSGFQVF gave 32 nM (3 of 3 replicates; controls 4 of 9).
Variant HGDSLRYYYAN / GKNNRPS / SSRDSSGFQVF gave 46 nM (3 of 3 replicates; controls 6 of 9).
Variant RGDSLRYYYAN / GKGNRPS / SSRDSSGFQVF gave 48 nM (3 of 3 replicates; controls 1 of 9).
Variant SGDSLRQYYAN / GKNNRPM / SSRDSSGFQVF gave 52 nM (3 of 3 replicates; controls 2 of 9).
Variant QGDSLRYYYPN / GKNNRPS / SSRDLSGFQVF gave 62 nM (3 of 3 replicates; controls 3 of 9).
Variant AGDSLRYYAAN / GKNNRPS / SSRDSSGFQLF gave 74 nM (3 of 3 replicates; controls 0 of 9).
Variant NGDSLRYYYAN / GKNNRPS / SSRDSCTFQVF gave 98 nM (3 of 3 replicates; controls 2 of 9).
Variant CGDSLRYYYAN / GKNARPS / SCRDSSGFQVF gave 100 nM (3 of 3 replicates; controls 5 of 9).
Variant YGDSLRYYYAN / GKNNRPS / SSRDSRGFQVF gave 270 nM (3 of 3 replicates; controls 2 of 9).
Variant KGDSLRYYYAN / GKNNRPS / SMRDSSGFQVS gave 290 nM (3 of 3 replicates; controls 2 of 9).
Variant MGSSLRYYYAN / GKNNRPS / SSRDSSGQQVF gave 320 nM (3 of 3 replicates; controls 4 of 9).
Variant NGDSLRYYYAN / GKNNRPS / SSRDSSGQVVF gave 400 nM (3 of 3 replicates; controls 4 of 9).
Variant SGDSLRYYYAN / GKNNRLS / ISRDSSGFQVF gave 440 nM (3 of 3 replicates; controls 4 of 9).
Variant SGDNLRYYYAN / GKNNRPT / SSRDSSGFQVF gave 540 nM (3 of 3 replicates; controls 4 of 9).
Variant TGDSLREYYAN / GKNNRPS / SSRDSSGFQVF gave 660 nM (3 of 3 replicates; controls 0 of 9).
Variant GGESLRYYYAN / GKNNRWS / SSRDSSGFQVF gave 660 nM (3 of 3 replicates; controls 1 of 9).
Variant VGDDLRYYYAN / GKNNRPS / SSYDSSGFQVF gave 750 nM (3 of 3 replicates; controls 6 of 9).
Variant KGDSLRYYYAN / GKNNRDS / SSRDSSGFQVF gave 840 nM (3 of 3 replicates; controls 0 of 9).
Variant KGDSLRYYYAN / GKNNRPS / SSRDSSCDQVF gave 1.1 µM (1 of 3 replicates; controls 2 of 9).
Variant MGDSLHYYYAN / GKNNRPS / SSRDDSGFQVF gave 1.1 µM (3 of 3 replicates; controls 3 of 9).
Variant SGDSLRYYVAN / GKNNRPS / SSRDSSGFQQF gave 1.3 µM (3 of 3 replicates; controls 2 of 9).
Variant QGDSLRYYYAN / GKNNPPS / SSRDSSGFQEF gave 1.5 µM (3 of 3 replicates; controls 3 of 9).
Variant GGDSLRYYYAN / GKNNRPS / SSRDSSGFGHF gave 1.6 µM (1 of 3 replicates; controls 3 of 9).
Variant QGPSLRYYYAG / GKNNRPS / SSRDSSGFQVF gave 2.3 µM (3 of 3 replicates; controls 4 of 9).
Variant IGKSLRYYYMN / GKNNRPS / SSRDSSGFQVF gave 2.3 µM (3 of 3 replicates; controls 2 of 9).
Variant YGDSLRYYYCN / GKNCRPS / SSRDSSGFQVF gave 3.2 µM (3 of 3 replicates; controls 6 of 9).
Variant LGDSLIYYYAN / GKNNRPS / SSRDSSGTQVF gave 4.0 µM (3 of 3 replicates; controls 1 of 9).
Variant FGDSLRYYYAN / VKNGRPS / SSRDSSGFQVF gave 8.7 µM (2 of 3 replicates; controls 4 of 9).
Variant AGDSLRYYYAN / GKNWRPS / SSEDSSGFQVF gave 13 µM (3 of 3 replicates; controls 4 of 9).
Variant KGDSLRYYYAM / GKNNRPS / SSRDSSGFQVF gave 23 µM (2 of 3 replicates; controls 2 of 9).
Variant PGDPLRYYYAN / GKNNEPS / SSRDSSGFQVF gave 33 µM (1 of 3 replicates; controls 1 of 9).
Variant VGDILRYYYAN / GKNNRPS / SSGDSSGFQVF gave 62 µM (2 of 3 replicates; controls 5 of 9).
Variant GGDSLRYYYKN / GKNNRPS / SSRDSGGFQVF gave 140 µM (1 of 3 replicates; controls 6 of 9).
Variant YDDSLRYYYAN / GKNNEPS / SSRDSSGFQVF gave 300 µM (1 of 3 replicates; controls 1 of 9).
Variant YGDSHTYYYAN / GKNNRPS / SSRDSSGFQVF gave nd (0 of 3 replicates; controls 1 of 9).
Variant DGDSLRYYYAA / GKNNRPS / SSRDYSGFQVF gave nd (0 of 3 replicates; controls 3 of 9).
Variant WGDSLRYYYAN / GKNNRQS / SSRDSSGFQVF gave nd (0 of 3 replicates; controls 0 of 9).
Variant QGDSLRYYYAN / GKNNRPS / SSRDSSGFQVF gave nd (0 of 3 replicates; controls 0 of 9).

The 2 strongest on average among those seen in every replicate, once more:

CDR-L1	CDR-L2	CDR-L3	Kd (apparent)	detected	control signals
QGDSLRYGYAN	GKNNRPS	RSRDSSGFQVF	1.7 nM	3/3	5/9
KGDSLRYYYAN	GKNNRPS	SSRDSSGFQVF	32 nM	3/3	4/9

Source: Engelhart et al. 2022 (doi:10.1038/s41597-022-01779-4), MIT Lincoln Laboratory and A-Alpha Bio; data file from the FLAb repository.